Consider 1 molecule from patent US20150346192A1 (Sanofi, published 2015).

Assay [1] addresses T1, ATP-binding cassette, sub-family E, member 1 (rat, UniProt D3ZD23 1-558). Nature of the assay: IP of RBL-2H3 lysate on nickel beads, MS/MS ProtScore; 1st value. An excerpt:
(§1) The three Ab fragments, as well as the appropriate irrelevant Abs, were purified and immobilised on magnetic nickel beads thanks to their 6×His tag. They were used to immunoprecipitate protein lysates from RBL-2H3 cells stimulated or not beforehand via the FcεRI. After the immunoprecipitations, the beads were washed in low stringency conditions in order to preserve low affinity bindings.
(§2) After electrophoresis on acrylamide gel (SDS-PAGE), and staining with Coomassie blue, bands present when immunoprecipitated by Ab fragments 3H2-1 and 5H4 and whose intensity was either higher as compared to the irrelevant Ab, or who were absent with the irrelevant Ab, were cut. After digestion with trypsin, the bands were analysed by mass spectrometry MS/MS using the MALDI-TOF (matrix-assisted laser desorption/ionization time of flight) technique.
(§3) The Mass spectrometer which was used is composed of a laser which ionises previously digested peptides; an analyser which measures the mass/charge (m/z) ratios of the ionised peptides as a function of their flight time; and a detector which records the number of ions for each given m/z ratio. The obtained spectra of m/z ratios allow the identification of peptides and thus proteins present in the samples, by interrogating the Genebank rat database, as well as the mouse database for comparison (the mice Genebank data being more complete). […]

Assay [2] addresses T1, ATP-binding cassette, sub-family E, …. Nature of the assay: IP of RBL-2H3 lysate on nickel beads, MS/MS ProtScore; 2nd value.
Source text: as §1, §2, §3

B1: 5H4-VH (other)
VH: MAEVQLVESGGSLVKPGGSLRLSCAASGFTFSNYSMNWVRQAPGKGLEWISSISGSSRYIYYADFVKGRFTISRDNATNSLYLQMNSLRAEDTAVYYCVRDGGLREGFDCWGRGTLVTVSSAAAEQKLISEEDLNGAA
notes: Single human-derived VH domain (truncated scFv, VH only) on the 13R4 framework; produced in E. coli, immobilised on nickel beads; also called 5H4-VH fragment; intracellular antibody 5H4-VH; not shown: C-terminal Myc tag and 6xHis tag from vector pET23NN
B1: the “Protscore IP” value in assay [1] and in assay [2] was 4 throughout.
